Patent publication US10053431B2, “Tetrahydro-benzodiazepinones” (priority 2013, dated 2018)
Structures can show the parent of a compound that is named as a salt.

By UniProt entry, the sequences of proteins in these tests, tags left out. Chains listed by the source or under a name are the forms on record and can include a tag or linker. Residues count along the entry.
UniProt P98170, 124-240 with tags or gaps C202A/C213G limits assumed: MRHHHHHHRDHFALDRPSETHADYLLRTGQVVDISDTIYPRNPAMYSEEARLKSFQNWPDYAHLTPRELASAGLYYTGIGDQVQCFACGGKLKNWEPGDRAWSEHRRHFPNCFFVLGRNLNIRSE

molecular target: BIR2 domain of XIAP (Homo sapiens (Human), UniProt P98170, C202A/C213G); test: TR-FRET assay for BIR2 (inhibition of binding of XIAP BIR2 domain to SMAC-derived Peptide A); conditions: 6x His-tagged BIR2 domain (aa 124-240 of XIAP) 10 nM, Peptide A 20 nM

Compound	IC50 [nM]
CN[C@@H](C)C(=O)N[C@H]1CN(C(=O)c2ccc(C(O)(O)C(F)(F)F)cc2)c2ccccc2N(Cc2c(OC)ccc3cc(Br)ccc23)C1=O [Example 13k]	25
CN[C@@H](C)C(=O)N[C@H]1CN(C(=O)CCC[N+](=O)[O-])c2ccccc2N(Cc2c(OC)ccc3cc(Br)ccc23)C1=O [Example 13n]	91
CN[C@@H](C)C(=O)N[C@H]1CN(C(=O)c2ccc(C#N)cc2)c2ccccc2N(Cc2c(OC)ccc3cc(Br)ccc23)C1=O [Example 13p]	22
CN[C@@H](C)C(=O)N[C@H]1CN(C(=O)CC(C)C)c2ccccc2N(Cc2ccccc2OC)C1=O [Example 22, (S)—N—[(S)-1-(2-Methoxy-benzyl)-5-(3-methyl-butyryl)-2-oxo-2,3,4,5-tetrahydro-1H-benzo[b][1,4]diazepin-3-yl]-2-methylamino-propionamide hydrochloride]	3170
CN[C@@H](C)C(=O)N[C@H]1CN(C(=O)c2ccc(C(N)=O)cc2)c2ccccc2N(Cc2c(OC)ccc3cc(Br)ccc23)C1=O [Example 30, 4-[(S)-5-(6-Bromo-2-methoxy-naphthalen-1-ylmethyl)-3-((S)-2-methylamino-propionylamino)-4-oxo-2,3,4,5-tetrahydro-benzo[b][1,4]diazepine-1-carbonyl]-benzamide hydrochloride]	33
CN[C@@H](C)C(=O)N[C@H]1CN(C(=O)c2ccc(C(=O)NCC3CCCCC3)cc2)c2ccccc2N(Cc2c(OC)ccc3cc(Br)ccc23)C1=O [Example 31, 4-[(S)-5-(6-Bromo-2-methoxy-naphthalen-1-ylmethyl)-3-((S)-2-methylamino-propionylamino)-4-oxo-2,3,4,5-tetrahydro-benzo[b][1,4]diazepine-1-carbonyl]-N-cyclohexylmethyl-benzamide hydrochloride]	41
CN[C@@H](C)C(=O)N[C@H]1CN(C(=O)c2ccc(C(C)O)cc2)c2ccccc2N(Cc2c(OC)ccc3cc(Br)ccc23)C1=O (stereo partly drawn) [Example 33, (S)—N—{(S)-1-(6-Bromo-2-methoxy-naphthalen-1-ylmethyl)-5-[4-(1-hydroxy-ethyl)-benzoyl]-2-oxo-2,3,4,5-tetrahydro-1H-benzo[b][1,4]diazepin-3-yl}-2-methylamino-propionamide hydrochloride]	18
CN[C@@H](C)C(=O)N[C@H]1CN(C(=O)c2ccc(N)cc2)c2ccccc2N(Cc2c(OC)ccc3cc(Br)ccc23)C1=O [Example 35, (S)—N—((S)-5-(4-aminobenzoyl)-1-((6-bromo-2-methoxynaphthalen-1-yl)methyl)-2-oxo-2,3,4,5-tetrahydro-1H-benzo[b][1,4]diazepin-3-yl)-2-(methylamino)propanamide dihydrochloride]	6
COc1ccc2cc(Br)ccc2c1CN1C(=O)[C@@H](NC(=O)[C@H](C)N(C)C)CN(C(=O)c2ccc(C(C)=O)cc2)c2ccccc21 [Example 38, (S)—N—((S)-5-(4-acetylbenzoyl)-1-((6-bromo-2-methoxynaphthalen-1-yl)methyl)-2-oxo-2,3,4,5-tetrahydro-1H-benzo[b][1,4]diazepin-3-yl)-2-(dimethylamino)propanamide]	1070
CN[C@H](C)C(=O)N[C@H]1CN(C(=O)c2ccc(C(C)=O)cc2)c2ccccc2N(Cc2c(C)ccc3ccccc23)C1=O [Example 68, (R)—N—((S)-5-(4-acetylbenzoyl)-1-((2-methylnaphthalen-1-yl)methyl)-2-oxo-2,3,4,5-tetrahydro-1H-benzo[b][1,4]diazepin-3-yl)-2-(methylamino)propanamide hydrochloride]	1480
[2H]C([2H])([2H])N[C@@H](C)C(=O)N[C@H]1CN(C(=O)c2ccc(C(C)=O)cc2)c2ccccc2N(Cc2c(OC)ccc3c(Br)cccc23)C1=O [Example 69m]	7
[2H]C([2H])([2H])N[C@@H](C)C(=O)N[C@H]1CN(C(=O)c2ccc(C(C)=O)cc2)c2ccccc2N(Cc2c(OC(F)F)ccc3ccccc23)C1=O [Example 69n]	11
